## Measured affinities in a library of Ab-91 heavy chain variants

The measurements come from Engelhart et al. 2022 (doi:10.1038/s41597-022-01779-4) through the FLAb antibody collection.

Antigen: PDVDLGDISGINAS, a 14-residue peptide of the SARS-CoV-2 spike HR2 region.

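Variants in AAYL51 differ from the parent at up to three CDR positions; double and triple changes were sampled at random. The assay is AlphaSeq: two haploid yeast populations carry antibody and antigen on their surface. The frequency of each diploid, read from paired DNA barcodes, reflects how well the two displayed proteins bind. The ratio of observed to expected reads was calibrated, replicate by replicate, on BCL2-family standards whose Kd was known from biolayer interferometry. Mating was done three times.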

Each scFv is VL, the linker GGGGSGGGGSGGGGS, VH, as in the parent Ab-91, and differs from it in the CDRs of the heavy chain only.
VL: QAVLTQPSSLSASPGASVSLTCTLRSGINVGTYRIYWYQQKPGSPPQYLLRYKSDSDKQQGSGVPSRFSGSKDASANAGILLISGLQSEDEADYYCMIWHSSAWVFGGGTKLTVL
VH: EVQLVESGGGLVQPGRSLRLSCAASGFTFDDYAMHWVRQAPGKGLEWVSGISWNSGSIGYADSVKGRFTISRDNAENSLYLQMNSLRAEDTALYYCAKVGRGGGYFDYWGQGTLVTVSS

Each variant's VH is given in full. The read-out is the apparent dissociation constant on a log10 scale (nM): the lower, the stronger. "n.d." means that the variant was in the library but no mating with the target was seen in that replicate; the authors take this as a sign of poor binding, and no number exists. Background: pairings of library AAYL51 with three empty control strains gave a value in 21% of cases (median 4.54, 5th percentile 3.26). Values in that range, when seen in few replicates, are hard to tell from nonspecific mating. For each scFv, signals with the empty controls are counted beside the result, with their mean in brackets. In this assay the parent's reference entry averaged 1.86; its copy inside this library read 0.88.

VH | log10 Kd, replicates | signal with controls
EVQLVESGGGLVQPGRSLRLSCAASYFTFDDYAPHWVRQAPGKGLEWVSGISWNSGEIGYADSVKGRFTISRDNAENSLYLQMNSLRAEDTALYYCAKVGRGGGYFDYWGQGTLVTVSS | 4.99 / n.d. / n.d. | 5 of 9 (4.52)
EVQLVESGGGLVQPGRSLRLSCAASGFTFDDYAMHWVRQAPGKGLEWVSGISWNSGSIGYADQVKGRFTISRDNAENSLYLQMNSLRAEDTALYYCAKSGRGGGYFAYWGQGTLVTVSS | n.d. / n.d. / n.d. | 0 of 9
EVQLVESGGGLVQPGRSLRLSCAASGFTFDDYAPHWVRQAPGKGLEWVSGISWNSGSIGYADSMKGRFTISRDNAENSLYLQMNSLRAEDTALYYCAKVGRGGMYFDYWGQGTLVTVSS | 5.96 / n.d. / n.d. | 2 of 9 (4.65)
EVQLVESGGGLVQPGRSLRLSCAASGFTFDGYAMHWVRQAPGKGLEWVSGISWNSASIGYADSVKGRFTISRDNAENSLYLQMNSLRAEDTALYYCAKVSRGGGYFDYWGQGTLVTVSS | 4.91 / n.d. / n.d. | 0 of 9
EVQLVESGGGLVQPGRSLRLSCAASGFTFDDYAMHWVRQAPGKGLEWVSGISWNPGSIGYADSVKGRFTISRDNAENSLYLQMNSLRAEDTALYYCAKVWRGGGYADYWGQGTLVTVSS | n.d. / n.d. / n.d. | 1 of 9 (4.16)
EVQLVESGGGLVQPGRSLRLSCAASGDTFDDYVMDWVRQAPGKGLEWVSGISWNSGSIGYADSVKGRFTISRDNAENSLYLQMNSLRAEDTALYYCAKVGRGGGYFDYWGQGTLVTVSS | 2.78 / n.d. / n.d. | 2 of 9 (4.21)
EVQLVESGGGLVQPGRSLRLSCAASGFTFDDYALHWVRQAPGKGLEWVSAISWNSGSNGYADSVKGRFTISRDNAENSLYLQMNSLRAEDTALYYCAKVGRGGGYFDYWGQGTLVTVSS | n.d. / n.d. / n.d. | 1 of 9 (4.45)
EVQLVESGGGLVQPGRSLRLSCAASGFTFDNYAMHWVRQAPGKGLEWVSGISWNSGSIGYADSVKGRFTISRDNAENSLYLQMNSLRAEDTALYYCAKWGRGGGYFDYWGQGTLVTVSS | n.d. / n.d. / n.d. | 1 of 9 (2.83)
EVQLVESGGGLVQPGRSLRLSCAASGRTFEDYAMHWVRQAPGKGLEWVSGISWNSGSIGYADSVKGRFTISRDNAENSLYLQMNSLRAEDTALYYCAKVGRGGKYFDYWGQGTLVTVSS | 3.78 / n.d. / n.d. | 1 of 9 (4.01)
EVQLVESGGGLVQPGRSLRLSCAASGFTFDDYAMHWVRQAPGKGLEWVSGISWNSGSIGYADSFKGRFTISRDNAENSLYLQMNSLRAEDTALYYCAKVGRGKGYFDTWGQGTLVTVSS | n.d. / n.d. / n.d. | 1 of 9 (4.46)
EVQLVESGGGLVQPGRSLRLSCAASGFTFDDYAMHWVRQAPGKGLEWVSTISWRSGSIGYADSVKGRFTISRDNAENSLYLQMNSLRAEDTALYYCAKVGRGGGYYDYWGQGTLVTVSS | 6.19 / 4.27 / 4.69 | 2 of 9 (4.83)
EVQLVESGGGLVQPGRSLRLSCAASGGTFDDYAMHWVRQAPGKGLEWVSGYSWNSGSIGYADSVKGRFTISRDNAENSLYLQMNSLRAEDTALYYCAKVGRGTGYFDYWGQGTLVTVSS | 6.31 / n.d. / n.d. | 4 of 9 (4.45)
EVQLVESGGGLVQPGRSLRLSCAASGFTFDDYAEHWVRQAPGKGLEWVSGISWNSGSIGYADSVKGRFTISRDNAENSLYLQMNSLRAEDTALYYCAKVGRGGGYFDYWGQGTLVTVSS | n.d. / n.d. / n.d. | 3 of 9 (3.42)
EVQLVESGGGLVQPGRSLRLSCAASGFTFDDYYMHWVRQAPGKGLEWVSGIMWNSGSIGYQDSVKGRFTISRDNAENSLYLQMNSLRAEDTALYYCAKVGRGGGYFDYWGQGTLVTVSS | n.d. / n.d. / n.d. | 1 of 9 (2.98)
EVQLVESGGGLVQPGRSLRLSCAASGFTQDDYAMHWVRQAPGKGLEWVSGISWNSGSIGYADSVKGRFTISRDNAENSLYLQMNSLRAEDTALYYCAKVGRGGGRFCYWGQGTLVTVSS | n.d. / 4.05 / n.d. | 3 of 9 (3.68)
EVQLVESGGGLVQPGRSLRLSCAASGFTFWDYAMHWVRQAPGKGLEWVSGISWNSGSTGYADSVKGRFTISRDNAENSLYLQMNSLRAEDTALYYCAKVGRGSGYFDYWGQGTLVTVSS | n.d. / 4.24 / n.d. | 0 of 9
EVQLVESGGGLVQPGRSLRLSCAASGFTFDDYAMHWVRQAPGKGLEWVSIISWNSGSMGYADSMKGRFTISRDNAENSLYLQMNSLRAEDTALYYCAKVGRGGGYFDYWGQGTLVTVSS | n.d. / n.d. / n.d. | 0 of 9